Key:
[1] = target: T1, purified human fibrinogen (Homo sapiens, UniProt P02679); assay: Clotting activity, Sigma Amelung KC4 coagulometer; assay type: biochemical; settings: KC-4 coagulometer at 0.5 mg/mL
T1 sequence (P02679 27-453): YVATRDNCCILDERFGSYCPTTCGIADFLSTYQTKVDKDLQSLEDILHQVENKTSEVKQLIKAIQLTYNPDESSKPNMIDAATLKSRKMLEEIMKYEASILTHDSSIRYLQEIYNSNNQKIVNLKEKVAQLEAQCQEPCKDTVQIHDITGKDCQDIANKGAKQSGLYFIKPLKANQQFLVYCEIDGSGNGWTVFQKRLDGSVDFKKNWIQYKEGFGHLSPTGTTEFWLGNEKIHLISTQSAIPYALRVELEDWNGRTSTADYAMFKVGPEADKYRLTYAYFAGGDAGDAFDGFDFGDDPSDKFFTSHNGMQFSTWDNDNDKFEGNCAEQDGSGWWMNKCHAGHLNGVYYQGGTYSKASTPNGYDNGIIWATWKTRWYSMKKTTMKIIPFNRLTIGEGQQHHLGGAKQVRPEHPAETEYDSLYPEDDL
T1 sequence (P02671 20-629 partner limits assumed): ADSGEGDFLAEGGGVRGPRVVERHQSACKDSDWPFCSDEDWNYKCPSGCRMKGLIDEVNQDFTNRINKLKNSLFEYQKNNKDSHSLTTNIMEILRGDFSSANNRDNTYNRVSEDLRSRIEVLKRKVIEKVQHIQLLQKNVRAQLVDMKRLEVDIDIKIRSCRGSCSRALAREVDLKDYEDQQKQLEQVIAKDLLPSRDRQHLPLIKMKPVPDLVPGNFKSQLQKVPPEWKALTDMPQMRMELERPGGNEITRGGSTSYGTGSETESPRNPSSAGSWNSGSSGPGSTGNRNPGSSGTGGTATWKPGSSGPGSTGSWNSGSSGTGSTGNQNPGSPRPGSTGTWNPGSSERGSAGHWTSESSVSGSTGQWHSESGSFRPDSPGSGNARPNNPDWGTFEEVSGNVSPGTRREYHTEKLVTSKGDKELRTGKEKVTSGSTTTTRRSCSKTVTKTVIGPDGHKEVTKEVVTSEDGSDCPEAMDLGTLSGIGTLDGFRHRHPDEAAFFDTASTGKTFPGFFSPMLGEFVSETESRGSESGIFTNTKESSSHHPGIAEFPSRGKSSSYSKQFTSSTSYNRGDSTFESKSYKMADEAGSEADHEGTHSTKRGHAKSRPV
T1 sequence (P02675 31-491 partner): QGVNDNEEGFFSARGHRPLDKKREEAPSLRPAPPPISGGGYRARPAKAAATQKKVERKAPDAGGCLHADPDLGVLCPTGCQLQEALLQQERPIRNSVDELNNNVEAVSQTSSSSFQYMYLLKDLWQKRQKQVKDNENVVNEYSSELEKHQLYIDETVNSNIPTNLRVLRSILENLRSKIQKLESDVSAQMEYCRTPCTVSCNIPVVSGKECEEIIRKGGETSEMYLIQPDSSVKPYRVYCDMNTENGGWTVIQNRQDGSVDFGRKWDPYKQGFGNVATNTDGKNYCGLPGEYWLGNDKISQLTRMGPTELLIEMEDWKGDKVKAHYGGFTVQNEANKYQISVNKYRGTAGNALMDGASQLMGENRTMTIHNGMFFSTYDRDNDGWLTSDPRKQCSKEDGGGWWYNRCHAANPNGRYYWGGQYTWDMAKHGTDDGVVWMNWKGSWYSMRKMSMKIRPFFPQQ
Protocol: The activity of the final product is investigated using a Sigma Amelung KC4 coagulometer. Briefly, 30 μL test sample at 0.5 mg/ml is added to 100 μL purified human fibrinogen at 3 mg/ml, the KC4 registers clot formation in less than 6 seconds.
The clotting activity of the sample was measured using a Sigma Amelung KC-4 coagulometer which measures the time taken to form a clot. The analysis of clotting activity of the eluted PeproStat was compared with that of non freeze-dried PeproStat.

rabbit fibrinogen = assay: Flow cytometry binding of FITC-labelled fibrinogen to GPRPG-albumin microparticles; settings: GPRPG peptide on albumin microparticles, flow cytometer
Protocol: The haemostatic activity of PeproStat was to be determined using a heparinised rabbit model. However, before using this model, it was important to determine that the product is active in a rabbit, and in particular that the fibrinogen-binding sequence of PeproStat (GPRP-) binds to rabbit fibrinogen. This was done by conjugating a GPRPG peptide to albumin microparticles, which were then incubated with FITC-labelled rabbit fibrinogen. Fluorescent fibrinogen binding to the particles can then be measured using a Flow Cytometer. […] This confirms published data showing that the relevant rabbit and human fibrinogen binding sequence exposed when thrombin cleaves Fibrinopeptide A from fibrinogen is the same.

[2] = system: rabbit liver abrasion injury; assay: Rabbit liver abrasion injury model, haemostatic effect of soaked gelatin pad; assay type: in vivo; settings: 5 mg/ml soaked onto gelatin pad; rabbits dosed with heparin 1000 IU/kg; thrombin at 125 units/ml; 1-12 minutes
Protocol: A rabbit liver abrasion injury model was used to assess the comparative haemostatic effect of PeproStat, thrombin, or saline soaked onto a gelatin pad. Haemostatic activity was determined in rabbits dosed with heparin at 1000 IU/kg.
A gelatin pad was cut to 2.0×3.0 cm using a scalpel blade. For each treatment, a pad sample was immersed in a 1.5 ml aliquot of test solution (a PeproStat, thrombin, or saline solution). It was then withdrawn and squeezed between gloved fingers to expel air bubbles, then returned to the solution until required.
A superficial circular lesion (diameter 10.3 mm, depth 2-3 mm) was created by abrading the surface of the liver lobe using a Dremel hand drill (Model 395 Type 5, USA; 10,000-35,000 rpm) with a flat surface abrasion stone (Dremel, part no. 85602 USA). Blood exiting the wound was collected for 15 s with a pre-weighed dry swab. The weight of blood collected was used as a measure of bleeding severity. […]
Upon removal of the moist gauze, with the test pad still in place, the wound was evaluated for haemostasis at 1, 3, 6, 9, and 12 minutes, where one minute refers to the time from when the test pad is applied to the wound.
A score of 0 (i.e. no bleeding) is judged as successful haemostasis at each time point. The percentage of 34 treatments (n=34 rabbits) regarded as successful was calculated for each time point.

[3] = Recovery of protein extracted from freeze-dried gelatin pad (reverse phase HPLC); assay type: physicochemical; settings: extracted in 10 mM sodium phosphate, 150 mM sodium chloride buffer pH 7.2
Protocol: 25 mg was cut from the pad and placed in a weighing boat. The dry PeproStat was extracted from the pad by thoroughly soaking the pad in 1 mL 10 mM sodium phosphate, 150 mM sodium chloride buffer, pH 7.2±0.2, and then squeezing the resultant solution out of the pad. The extraction procedure was performed on four separate occasions. The protein content of recovered PeproStat in the solution was measured using a 5 μm C8 Symmetry Reverse Phase HPLC from a calibration curve constructed from dilutions of standard PeproStat.

citrated whole blood = assay: Blood impedance method, blood transfer through soaked polyester/rayon gauze; settings: 0.5 mL at 5 mg/mL on polyester/rayon gauze; 4×0.5 mL citrated whole blood; n=3
Protocol: The haemostatic activity of 0.5 mL PeproStat at 5 mg/mL soaked onto a polyester/rayon blend was measured using a blood impedance method as follows:
A double layer of the polyester/rayon gauze was stretched over a Universal container with an internal diameter of 2.5 cm and the area of gauze covering the open tube was marked. The gauze was removed from the tube and 0.5 mL PeproStat at 5 mg/mL was applied to the marked circle; 0.5 ml water was applied to a second dressing marked in the same manner as a control.
The Universal containers were weighed and the soaked gauzes stretched across the mouth of the tube. 4×0.5 mL citrated whole blood was then applied sequentially to the soaked gauze, and blood transfer through the gauze was measured by the weight of blood in the tube.

fibrinogen = target: T2, fibrinogen (Homo sapiens, UniProt P02679); assay: Stability in solution at 37° C., visual clot formation with fibrinogen; assay type: physicochemical; settings: stored in solution at 37° C.
T2 sequence (P02679 27-453): T1 sequence (P02679 27-453)
T2 sequence (P02671 20-629 partner limits assumed): T1 sequence (P02671 20-629 partner limits assumed)
T2 sequence (P02675 31-491 partner): T1 sequence (P02675 31-491 partner)
Protocol: PeproStat (comprising fibrinogen-binding peptides, each of sequence GPRPG immobilised to HSA carrier) was stored in solution for 6 months at 37° C. At time zero, and various times during the storage period, samples of the stored solution were assayed for ability to form a co-polymer with fibrinogen, as follows:
Fibrinogen was diluted in 10 mM HEPES, 0.15M NaCl, pH 7.3+/1 0.2 to 6 mg/ml. 25 μl PeproStat at 5 mg/ml was added to 400 μl of the diluted fibrinogen, and the time taken for formation of a visual clot comprising a co-polymer of PeproStat and fibrinogen was recorded.

Clotting activity of PeproStat from freeze-dried pad versus control non freeze-dried PeproStat [1]: no significant difference
Binding to rabbit fibrinogen compared with human fibrinogen (rabbit fibrinogen): comparable
Substance: PeproStat: fibrinogen-binding peptide GPRPG linked via PEG12-maleimide linker to thiolated human serum albumin carrier
Haemostatic activity (successful haemostasis, bleeding score 0) versus saline or thrombin pad [2]: significantly better haemostatic agent
Protein recovered from the pad [3]: 90-95%
Mean weight of blood passing through the gauze (citrated whole blood): 0.009 g
Stability in solution (retained ability to form co-polymer with fibrinogen) (fibrinogen): at least 6 months
